Laboratory results reported in patent US20180371033A1, “THERAPEUTIC PEPTIDES AND METHODS OF USE THEREOF” (priority 2015, published 2018).
Values joined by “and” are separate entries in the source; they are usually repeats but may differ in a detail not shown here. Equal entries are not always repeated.

Key:
[1] = format: in vivo, mice; conditions: 14C whole body autoradiography; for Bladder / Spinal Cord: radioactivity signal per area in blood compared to tissue
From the text: This example describes biodistribution of peptides.
ND indicates the peptide was not detected in that tissue.

[2] = for Blood (densitometric signal in the heart blood) / Brain (percentage of signal in that tissue compared to the signal detected in the heart blood): 14C-radiolabeled peptide, tail vein injection, kidneys ligated, target three hours circulation; for penetration of the blood brain barrier in comparison with the negative controls: reference level for high penetration: at least 10% diffuse signal in brain versus blood
[3] = Brain section autoradiography: peptide homing to ventricles and cerebral spinal fluid; format: in vivo, Female Harlan athymic nude mice; conditions: 14C signal in sagittal/coronal brain sections, 3 hours after administration
From the text: The experiment was done in duplicates.

MDA-MB-231 tumor = test: Peptide homing to tumors: whole organ fluorescence of Cy5.5 labeled peptides, MDA-MB-231 tumor-bearing mice; format: in vivo; conditions: 10 nmol Cy5.5 conjugate, 24 hours, single mouse
Protocol: (§1) This example describes peptide homing to tumors. A peptide of the disclosure was labeled with a Cyanine 5.5 (Cy5.5) NHS ester near infrared fluorophore under aqueous conditions. Peptides of the disclosure were dissolved to 2 mg/mL in 50 mM sodium bicarbonate, pH 8.3. Cy5.5 NHS ester was dissolved at 10 mg/mL in anhydrous dimethylsulfoxide.
(§2) Approximately 0.1 molar equivalents of dye were added to the aqueous peptide solution at 10 minute intervals with thorough mixing. Analytical HPLC monitored at 214 and 678 nm was used to assess the completion of the reaction. Once complete, the mono-labeled product was purified using semi-preparative HPLC. The presence of a single Cy5.5-conjugated product was confirmed by mass spectrometry.
(§3) Each peptide was chemically conjugated to Cy5.5 at the N-terminus or to a reactive lysine via an active NHS ester on the dye. […] The resulting fluorescence was normalized based on the fluorescence of the solution. The tumors were subcutaneous xenografts of either Colo205 (a human colon cancer cell line), MDA-MB231 (a triple-negative human breast cancer cell line), or U87 (a human glioma cell line), which were implanted in the flank of the mouse.
(§4) At the end of the 24-hour dosing period, mice were euthanized by CO2 asphyxiation. Blood, tumor, muscle, kidney, liver, spleen, and colon tissue were harvested and placed in PBS on ice. The tissue was then scanned on the Odyssey CLx scanner (LI-COR) using the 700 nm channel, 21 micron resolution, and the Auto intensity settings. The signal intensity within a region of interest (ROI) was measured using the Image Studio software version 5.2 (LI-COR). All ROI's were the same size.
TABLE 6 lists whole organ fluorescence quantification data of Cy5.5 labeled peptides of SEQ ID NO: 25, SEQ ID NO: 32, SEQ ID NO: 17, SEQ ID NO: 6, SEQ ID NO: 37, SEQ ID NO: 35, or SEQ ID NO: 36 from MDA-MB231 tumor-bearing Female Harlan athymic mice. Each row in TABLE 6 represents data from a single mouse (signal for each tissue is averaged over 3 ROIs per tissue).

U87 tumor = test: Peptide homing to tumors: whole organ fluorescence of Cy5.5 labeled peptides, U87 tumor-bearing mice; format: in vivo; conditions: 10 nmol Cy5.5 conjugate, 24 hours, single mouse
Protocol: as §1, §2, §3, §4
TABLE 7 lists whole organ fluorescence quantification data of peptides of SEQ ID NO: 25, SEQ ID NO: 32, SEQ ID NO: 17, SEQ ID NO: 6, SEQ ID NO: 37, SEQ ID NO: 35, or SEQ ID NO: 36 conjugated to Cy5.5, from U87 tumor-bearing Female Harlan athymic mice. Each row in TABLE 7 represents data from a single mouse (signal for each tissue is averaged over 3 ROIs per tissue).

Colo205 tumor = test: Peptide homing to tumors: whole organ near-infrared fluorescence of Cy5.5 labeled peptides, Colo205 tumor-bearing mice; format: in vivo; conditions: 10 nmol Cy5.5 conjugate, 24 hours, single mouse
Protocol: as §1, §2, §3, §4
TABLE 5 lists whole organ near-infrared fluorescence quantification data in triplicate of Cy5.5 labeled peptides of SEQ ID NO: 25, SEQ ID NO: 32, SEQ ID NO: 17, SEQ ID NO: 6, SEQ ID NO: 37, SEQ ID NO: 35, or SEQ ID NO: 36 from Colo205 tumor-bearing Female Harlan athymic mice. Each row in TABLE 5 represents data from a single mouse (signal for each tissue is averaged over 3 ROIs per tissue).

[4] = system: Colo205, MDA-MB231 or U87 tumors; test: Peptide homing to tumors: summary over Colo205, MDA-MB231 and U87 xenografts; format: in vivo; conditions: each tumor (Colo205, MDA-MB231, U87); Cy5.5 conjugates
Protocol: as §1, §3
At the end of the 24-hour dosing period, mice were euthanized by CO2 asphyxiation. Blood, tumor, muscle, kidney, liver, spleen, and colon tissue were harvested and placed in PBS on ice. The tissue was then scanned on the Odyssey CLx scanner (LI-COR) using the 700 nm channel, 21 micron resolution, and the Auto intensity settings. The signal intensity within a region of interest (ROI) was measured using the Image Studio software version 5.2 (LI-COR). All ROI's were the same size. […]

Sequence	Adipose (percentage of signal compared to blood in the heart) [1] [%]	Gall bladder (percentage of signal compared to blood in the heart) [1] [%]	Liver (percentage of signal compared to heart blood) [1] [%]	Lower GI (percentage of signal compared to blood in the heart) [1] [%]	Lung (percentage of signal compared to heart blood) [1] [%]	Muscle (percentage of signal compared to blood in the heart) [1] [%]	Pancreas (percentage of signal compared to blood in the heart) [1] [%]	Reproductive (tract; percentage of signal compared to heart blood) [1] [%]	Salivary gland (percentage of signal compared to heart blood) [1] [%]	Spleen (percentage of signal compared to blood in the heart) [1] [%]	Upper GI (percentage of signal compared to blood in the heart) [1] [%]	Bladder [1]	Spinal Cord [1]	Blood (densitometric signal in the heart blood) [2]	Brain (percentage of signal in that tissue compared to the signal detected in the heart blood) [2] [%]	penetration of the blood brain barrier in comparison with the negative controls [2]	localization of the peptide to specific structures in the brain [3]	also measured
GSECRYWLGTCSKTGDCCSHLSCSPKHGWCVWDWTFRK [SEQ ID NO: 3]	6.20	86.20	109.00	17.04	181.48	25.47	37.76	60.79	47.89	43.16	69.16	ND (ND indicates the peptide was not detected in that tissue)	Low	2858983560	10.76	highly penetrate the blood brain barrier		
GSGCLEFWWKCNPNDDKCCRPKLKCSKLFKLCNFSFG [SEQ ID NO: 2]	46.92	158.65	507.95	33.29	148.59	68.00	89.66	165.31	150.77	90.64	624.30	Low	Low	1327759044	11.27	highly penetrate the blood brain barrier		
GSVGCEECPMHCKGKNANPTCDDGVCNCNV [first purified fraction (first HPLC peptide peak) of a peptide of SEQ ID NO: 55]																	specific structures in the brain, such as ventricles and CSF	
GSKCLPPGKPCYGATQKIPCCGVCSHNNCT [GS-Hainantoxin, reference compound]	5.05	315.85	70.61	10.65	85.11	20.63		77.98	16.59		387.02			1768833565	3.65			
GSVGCEECPMHCRGRNANPTCDDGVCNCNV [SEQ ID NO: 83]																	specific structures in the brain, such as ventricles and CSF	
GSVGCEECPMHCKGKNANPTCDDGVCNCNV [second purified fraction (second HPLC peptide peak from the ]																	specific structures in the brain, such as ventricles and CSF	
GSICIPCFTTDHQIARRCDDCCGGRGRGKCYGPQCICR [SEQ ID NO: 17]																		Tumor/Muscle (ratio of the signal in the tumor to the signal in the muscle) (MDA-MB-231 tumor): 3.587 and 7.787 and 9.026; Colon (fluorescence signal) (MDA-MB-231 tumor; average of 3 ROIs): 2346666.67 and 3130000 and 3636666.67; Liver (fluorescence signal) (MDA-MB-231 tumor; average of 3 ROIs): 13400000 and 12766666.7 and 15833333.3; Muscle (fluorescence signal) (MDA-MB-231 tumor; average of 3 ROIs): 923666.67 and 706333.33 and 688000; Spleen (fluorescence signal) (MDA-MB-231 tumor; average of 3 ROIs): 2283333.33 and 2500000 and 3006666.67; Tumor (fluorescence signal) (MDA-MB-231 tumor; average of 3 ROIs): 3313333.33 and 5500000 and 6210000; Tumor/Muscle (ratio of the signal in the tumor to the signal in the muscle) (U87 tumor): 10.67 and 7.632 and 7.642; Colon (fluorescence signal) (U87 tumor; average of 3 ROIs): 5626667 and 3913333 and 4803333; Liver (fluorescence signal) (U87 tumor; average of 3 ROIs): 24233333 and 16266667 and 16233333; Muscle (fluorescence signal) (U87 tumor; average of 3 ROIs): 1140000 and 1099333 and 1010667; Spleen (fluorescence signal) (U87 tumor; average of 3 ROIs): 4786667 and 2913333 and 3563333; Tumor (fluorescence signal) (U87 tumor; average of 3 ROIs): 12166667 and 8390000 and 7723333; Tumor/Muscle (ratio of the signal in the tumor to the signal in the muscle) (Colo205 tumor): 2.796 and 3.02 and 5.044; Colon (near-infrared fluorescence signal) (Colo205 tumor; average of 3 ROIs): 4606666.7 and 5340000 and 4263333.3; Liver (near-infrared fluorescence signal) (Colo205 tumor; average of 3 ROIs): 18766667 and 18466667 and 16800000; Muscle (near-infrared fluorescence signal) (Colo205 tumor; average of 3 ROIs): 1340000 and 1636666.7 and 1360000; Spleen (near-infrared fluorescence signal) (Colo205 tumor; average of 3 ROIs): 4140000 and 4153333.3 and 3923333.3; Tumor (near-infrared fluorescence signal) (Colo205 tumor; average of 3 ROIs): 3746666.7 and 4943333.3 and 6860000; detection in tumor [4]: detected in each tumor
GSMCIPCFTTNPNMAAKCNACCGSRRGSCRGPQCIC [SEQ ID NO: 1]	4.78		129.99	9.87	89.98	36.56	92.54		62.08	83.62	793.25	ND (ND indicates the peptide was not detected in that tissue)	moderate	2203247460	14.53	highly penetrate the blood brain barrier		
